Test results: ChEMBL document CHEMBL1125138, “1,3-Dialkyl-3-acyltriazenes, a novel class of antineoplastic alkylating agents” (J Med Chem, 1990)

Assays:
[1] = test system: CCD 19Lu; assay: Evaluated for the inhibitory concentration required to cause growth inhibition of CCD-19Lu fibroblasts cell line using the MTT Cytotoxicity Assay
[2] = test system: A498; assay: Evaluated for the inhibitory concentration required to cause growth inhibition of A498Rem- renal cell line using the MTT Cytotoxicity Assay
[3] = test system: A-427; assay: Evaluated for the inhibitory concentration required to cause growth inhibition of A427Mer- cell line of lung using the MTT Cytotoxicity Assay
[4] = test system: HOS-TE85; assay: Evaluated for the inhibitory concentration required to cause growth inhibition of TE85Mer+ sarcoma cell line using the MTT Cytotoxicity Assay
[5] = test system: NCI-H125; assay: Evaluated for the inhibitory concentration required to cause growth inhibition of H125 cell line of lung using the Microculture Tetrazolium (MTT) Cytotoxicity Assay
[6] = test system: LOX IMVI; assay: Evaluated for the inhibitory concentration required to cause growth inhibition of LOX melanoma cell line using the MTT Cytotoxicity Assay
[7] = test system: MCF7; assay: Evaluated for the inhibitory concentration required to cause growth inhibition of MCF-7 breast cell line using the MTT Cytotoxicity Assay
[8] = test system: NCI-H520; assay: Evaluated for the inhibitory concentration required to cause growth inhibition of H522 cell line of lung using the Microculture Tetrazolium (MTT) Cytotoxicity Assay
[9] = test system: NCI-H23; assay: Evaluated for the inhibitory concentration required to cause growth inhibition of H23 cell line of lung using the Microculture Tetrazolium (MTT) Cytotoxicity Assay
[10] = test system: OVCAR-3; assay: Evaluated for the inhibitory concentration required to cause growth inhibition of OVCAR-3 ovarian cell line using the MTT Cytotoxicity Assay
[11] = test system: A673; assay: Evaluated for the inhibitory concentration required to cause growth inhibition of A673Mer+ sarcoma cell line using the MTT Cytotoxicity Assay
[12] = test system: RPMI-7951; assay: Evaluated for the inhibitory concentration required to cause growth inhibition of RPMI7951 melanoma cell line using the MTT Cytotoxicity Assay
[13] = test system: A549; assay: Evaluated for the inhibitory concentration required to cause growth inhibition of A549Rem- cell line of lung using the MTT Cytotoxicity Assay
[14] = test system: DOD-1; assay: Evaluated for the inhibitory concentration required to cause growth inhibition of DOD-1 breast cell line using the MTT Cytotoxicity Assay
[15] = test system: NCI/ADR-RES; assay: Evaluated for the inhibitory concentration required to cause growth inhibition of MCF-7ADR breast cell line using the MTT Cytotoxicity Assay
[16] = test system: NCI-H358; assay: Evaluated for the inhibitory concentration required to cause growth inhibition of H358M cell line of lung using the Microculture Tetrazolium (MTT) Cytotoxicity Assay
[17] = test system: WiDr; assay: Evaluated for the inhibitory concentration required to cause growth inhibition of WiDR colon cell line using the MTT Cytotoxicity Assay
[18] = test system: TE-671; assay: Evaluated for the inhibitory concentration required to cause growth inhibition of TE-671 cell line of central nervous system (CNS)using the MTT Cytotoxicity Assay
[19] = test system: SK-MEL-5; assay: Evaluated for the inhibitory concentration required to cause growth inhibition of SK-MEL-5 melanoma cell line using the MTT Cytotoxicity Assay
[20] = test system: NCI-H322M; assay: Evaluated for the inhibitory concentration required to cause growth inhibition of H322M cell line of lung using the Microculture Tetrazolium (MTT) Cytotoxicity Assay
[21] = test system: Malme-3M; assay: Evaluated for the inhibitory concentration required to cause growth inhibition of MALME-3M melanoma cell line using the MTT Cytotoxicity Assay
[22] = test system: MAR BEL fibroblasts cell line; assay: Evaluated for the inhibitory concentration required to cause growth inhibition of MAR BEL fibroblasts cell line using the MTT Cytotoxicity Assay
[23] = test system: A704; assay: Evaluated for the inhibitory concentration required to cause growth inhibition of A704Rem- renal cell line using the MTT Cytotoxicity Assay
[24] = test system: OVCAR-4; assay: Evaluated for the inhibitory concentration required to cause growth inhibition of OVCAR-4 ovarian cell line using the MTT Cytotoxicity Assay
[25] = test system: NCI-H460; assay: Evaluated for the inhibitory concentration required to cause growth inhibition of H460 cell line of lung using the Microculture Tetrazolium (MTT) Cytotoxicity Assay
[26] = test system: A 172; assay: Evaluated for the inhibitory concentration required to cause growth inhibition of A172Mer- cell line of central nervous system (CNS) using the MTT Cytotoxicity Assay
[27] = test system: U-251; assay: Evaluated for the inhibitory concentration required to cause growth inhibition of U251 cell line of central nervous system (CNS) using the MTT Cytotoxicity Assay

SMILES: CCOP(=O)(OCC)N(C)/N=N\C
- IC50 [1]: 37 µM
- IC50 [2]: 22 µM
- IC50 [3]: 7 µM
- IC50 [4]: 20 µM
- IC50 [5]: 29 µM
- IC50 [6]: 20 µM
- IC50 [7]: 20 µM
- IC50 [8]: 18 µM
- IC50 [9]: 14 µM
- IC50 [10]: 27 µM
- IC50 [11]: 25 µM
- IC50 [12]: 26 µM
- IC50 [13]: 30 µM
- IC50 [14]: 30 µM
- IC50 [15]: 23 µM
- IC50 [16]: 50 µM
- IC50 [17]: 20 µM
- IC50 [18]: 28 µM
- IC50 [19]: 18 µM
- IC50 [20]: 25 µM
- IC50 [21]: 15 µM
- IC50 [22]: 40 µM
- IC50 [23]: 37 µM
- IC50 [24]: 20 µM
- IC50 [25]: 42 µM
- IC50 [26]: 14 µM
- IC50 [27]: 25 µM
